Earlier results as cited in patent publication US20260216110A1, “COMPOUND USEFUL AS THYROID HORMONE RECEPTOR ß-SELECTIVE THYROID HORMONE ANALOG” (NATIONAL UNIVERSITY CORPORATION TOKAI NATIONAL HIGHER …, priority 2022, published 2026).

Chains of the proteins cited; added tags and fusions are not shown.
UniProt P10828, whole entry: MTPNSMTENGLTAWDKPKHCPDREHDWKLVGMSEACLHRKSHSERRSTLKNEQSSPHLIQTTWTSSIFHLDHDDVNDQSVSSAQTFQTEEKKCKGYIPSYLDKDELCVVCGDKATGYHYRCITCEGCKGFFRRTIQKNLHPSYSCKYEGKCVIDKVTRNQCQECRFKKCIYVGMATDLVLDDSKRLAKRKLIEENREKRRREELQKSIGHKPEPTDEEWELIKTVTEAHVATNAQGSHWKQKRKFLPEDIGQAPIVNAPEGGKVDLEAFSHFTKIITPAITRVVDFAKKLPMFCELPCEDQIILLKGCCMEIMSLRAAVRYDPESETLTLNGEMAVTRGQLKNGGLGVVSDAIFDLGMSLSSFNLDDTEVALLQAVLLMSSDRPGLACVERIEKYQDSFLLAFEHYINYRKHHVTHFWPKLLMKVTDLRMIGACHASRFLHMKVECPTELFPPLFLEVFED

Biological target: THRβ (Homo sapiens, UniProt P10828)
Conditions: relative to T3; cited from earlier work

Compound: Cc1cc(OCC(=O)O)cc(C)c1Cc1ccc(O)c(C(C)C)c1 [GC-1]
- affinity for THRβ: without significantly compromising
